Results published in PubChem BioAssay AID651999 (Sanford-Burnham Center for Chemical Genomics, 2013).
The entries are a selection whose mix differs from that of the whole data set. Some salts or complexes appear as unconnected parts, following the source record. Active and inactive are the calls of the source.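 How the source made its calls: active means pattern-corrected inhibition above about 35%, with an unprinted fluorescence ratio check between 0.5 and 1.5 (limit read from the data, passing the limit was not always enough); inactive means the rest.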

Chains of the proteins cited; added tags and fusions are not shown.
UniProt Q92905, whole entry: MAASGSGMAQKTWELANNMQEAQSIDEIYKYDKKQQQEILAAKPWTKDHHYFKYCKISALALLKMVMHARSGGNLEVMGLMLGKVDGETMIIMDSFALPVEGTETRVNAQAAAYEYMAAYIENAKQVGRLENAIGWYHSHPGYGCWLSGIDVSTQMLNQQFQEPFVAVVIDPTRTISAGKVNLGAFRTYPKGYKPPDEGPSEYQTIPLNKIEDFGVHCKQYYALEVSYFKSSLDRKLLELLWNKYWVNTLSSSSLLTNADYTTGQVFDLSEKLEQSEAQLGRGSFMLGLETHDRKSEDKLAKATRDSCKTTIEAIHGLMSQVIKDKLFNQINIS

target: COP9 signalosome complex subunit 5 (Homo sapiens) (UniProt Q92905); test: inhibitors of CSN-mediated cullin deneddylation, primary screen, biochemical, fluorescence polarization, uHTS (AID 651999); settings: Purified CSN, SCF-Nedd8-OG deneddylation, at 12.5 µM, hits give high values;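 further: 0% = enzyme with substrate and 100% = substrate without enzyme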
In short: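 Test system: Human Csn5 produced in HEK293T cells | Compound: 12.5 µM single point | Times: 90 min, room temperature | Signal: Fluorescence polarization readout | Read-out basis: % inhibition of substrate cleavage by Csn5 | Controls: no-enzyme wells high, enzyme-with-substrate wells low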

SMILES	inhibition
CP(=O)(OCCOc1ccccc1)OCCOc1ccccc1	inactive: 0.28%
CCCCCCCCCCCCCCCC1C[N+](C)(C)CCOP(C)(=O)O1 (stereo not given)	inactive: 7.06%
CP(=O)(Nc1ccc(Cl)cc1Cl)Oc1ccccc1 (stereo not given)	inactive: 1.74%
O=C1C(O)=C([N+](=O)[O-])C(=O)C(O)=C1[N+](=O)[O-]	inactive: 30%
Cc1cc(C)cc(OP(C)(=O)Nc2cccc(C(F)(F)F)c2)c1 (stereo not given)	inactive: -1.83%
COc1ccc(OP(C)(=O)Nc2ccccc2Br)cc1 (stereo not given)	inactive: -0.01%
COc1ccccc1OP(C)(=O)Nc1ccc(C)c(C)c1 (stereo not given)	inactive: -6.46%
CP(=O)(OC12CC3CC(CC(C3)C1)C2)OC12CC3CC(CC(C3)C1)C2	inactive: -1.01%
CCOC(=O)c1ccc(NP(C)(=O)Oc2ccc(Cl)cc2)cc1 (stereo not given)	inactive: -0.25%
CP(=O)(Nc1ccc(Cl)cc1)Oc1ccc(F)cc1 (stereo not given)	inactive: -1.84%
CC(C)(C)c1ccc(OP(C)(=O)O)cc1	inactive: -2.06%
COc1ccccc1OP(C)(=O)Nc1ccccc1Br (stereo not given)	inactive: 1.34%
CN(C)C(=O)c1c([N+](=O)[O-])cc([N+](=O)[O-])cc1[N+](=O)[O-]	inactive: 0.43%
CCN(CC)CC(O)COC(=O)C(O)(c1ccccc1)C1CCCCC1 (stereo not given)	inactive: 4.95%
COc1ccc(OP(C)(=O)Nc2ccc(Br)cc2)cc1 (stereo not given)	inactive: -3.84%
CP(=O)(Oc1ccccc1)N1CCOC1=O (stereo not given)	inactive: -1.97%
CCc1ccc(OP(C)(=O)Nc2cccnc2)cc1 (stereo not given)	inactive: 1.71%
COc1ccccc1OP(C)(=O)Nc1c(C)n(C)n(-c2ccccc2)c1=O (stereo not given)	inactive: 2.07%
O=C(OCCCN1CCCC1)C(O)(c1ccccc1)C1CCCCC1 (stereo not given)	inactive: -5.5%
CP(=O)(Nc1ccc2c(c1)OCCO2)Oc1ccccc1 (stereo not given)	inactive: 7.06%
O=[N+]([O-])c1cc([N+](=O)[O-])c(C(F)(F)F)c([N+](=O)[O-])c1O	inactive: 3.42%
Cc1ccccc1NP(C)(=O)Nc1ccccc1C	inactive: 5.86%
CP(=O)(Nc1ccc(SC(F)(F)F)cc1)Oc1ccc(F)cc1 (stereo not given)	inactive: -2.55%

SMILES	inhibition
CCOP(C)(=S)SCC(=O)NC(C)(CC)C(=O)O (stereo not given)	inactive: -3.18%
Cc1cc(-c2cccc3ccccc23)c(C)cn1.O=[N+]([O-])c1cc([N+](=O)[O-])c(O)c([N+](=O)[O-])c1	inactive: -2.01%
O=[N+]([O-])c1cc([N+](=O)[O-])c(NCC2CCS(=O)(=O)C2)c([N+](=O)[O-])c1 (stereo not given)	inactive: 1.67%
O=[N+]([O-])c1ccc(OP2(=O)COCCO2)cc1 (stereo not given)	inactive: 0.39%
Cc1c(C(c2ccc3c(c2)OCO3)c2c(C)n(C)n(-c3ccccc3)c2=O)c(=O)n(-c2ccccc2)n1C.O=[N+]([O-])c1cc([N+](=O)[O-])c(O)c([N+](=O)[O-])c1	inactive: 1.55%
COc1ccc(OP(C)(=O)Nc2cccc(Br)c2)cc1 (stereo not given)	inactive: -2.57%
COc1ccc(NP(C)(=O)Oc2ccccc2OC)cc1 (stereo not given)	inactive: 105%
CN(C)CCOC(=O)C(O)(c1ccccc1)C1CCCCC1 (stereo not given)	inactive: 2.01%
CCN(CC)CCCOC(=O)C(O)(c1ccccc1)C1CCCCC1 (stereo not given)	inactive: -3.6%
Cc1c([N+](=O)[O-])cc([N+](=O)[O-])c(Br)c1[N+](=O)[O-]	inactive: -1.77%
CCCCCOc1ccc(NP(C)(=O)Oc2ccc(Cl)cc2Cl)cc1 (stereo not given)	inactive: -2.6%
O=[N+]([O-])c1cc([N+](=O)[O-])c(OC2CCCCC2O)c([N+](=O)[O-])c1 (stereo not given)	inactive: 8.6%
CP(=O)(Nc1ccccc1)Oc1ccc(F)cc1 (stereo not given)	inactive: 0.06%
CCN(CC)CCCNc1ccccc1[N+](=O)[O-].O=[N+]([O-])c1cc([N+](=O)[O-])c(O)c([N+](=O)[O-])c1	inactive: 0.94%
COc1ccc(OP(C)(=O)Nc2ccc(SC(F)(F)F)cc2)cc1 (stereo not given)	inactive: -1.83%
CCOC(=O)c1ccc(NP(C)(=O)Oc2ccc(F)cc2)cc1 (stereo not given)	inactive: -0.79%
O=C(OCCN1CCN(CCOCc2ccccc2)CC1)C(O)(c1ccccc1)c1ccccc1	inactive: 0.04%
O=C(OC1CN2CCC1CC2)c1ccc([N+](=O)[O-])cc1 (stereo not given)	inactive: -1.78%
COc1ccc2c(c1O)-c1c(O)c(OC)cc3c1[C@H](C2)[N+](C)(C)CC3.O=[N+]([O-])c1cc([N+](=O)[O-])c([O-])c([N+](=O)[O-])c1[O-]	inactive: -3.61%
O=[N+]([O-])c1cc([N+](=O)[O-])c(Nc2ccc(Cl)cc2)c([N+](=O)[O-])c1	inactive: -5.41%
CC(C)c1ccc(OP(C)(=O)Nc2ccc(SC(F)(F)F)cc2)cc1 (stereo not given)	inactive: -1.62%
CP(=O)(Nc1ccccc1F)Oc1ccccc1 (stereo not given)	inactive: -4.51%
